# Shown are actives, neighbours in structure and some others; about 0.91% of the full set was active somewhere.
# Statin myotox sup – suppressors of statin myotoxicity in C2C12 myotubes, primary screen, cell-based, single point, plate reader | C2C12 myotubes + simvastatin, ATP luminescence, 48 h; scaled: DMSO 0, geranylgeraniol control 100 | 0.78% of 330,000 active | rescue of ATP level, % at 7.49 µM | AID 602340, 2012;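 active means mean ATP rescue above about 67%, or every replicate alone reaching that limit, limit read from the data, passing the limit was not always enough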;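 further: myotubes were challenged with 10 µM simvastatin during compound exposure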
# FN deposit inh – inhibitors of fibronectin matrix deposition, primary screen, AH1F cells, Alexa488-fibronectin fluorescence, plate reader. AH1F fibroblasts, overnight. inhibition, % at 12.6 µM. 0.086% of 350,000 active. AID 743247, 2014;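 active means mean inhibition across replicates of 30% or more, regardless of how many single replicates reach that level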;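 further: positive control wells lacked labelled fibronectin entirely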
#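 material = AH1F fibroblast monolayer depositing Alexa488-labelled fibronectin into matrix | amount = 10000 AH1F cells/well | buffer or medium = DMEM plus 2% serum, read in PBS | incubation = 1 h cell adhesion before compound, then overnight fibronectin incubation | detection = fluorescence at 485 nm excitation, 525 nm emission | evaluation = percent inhibition as loss of matrix-bound fibronectin fluorescence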
# PGC1a acetyl inh – inhibitors of PGC1a acetylation signal, primary screen, cell-based, U2OS, AlphaScreen, inhibitor mode; AlphaScreen anti-acetyl-lysine; with virally co-expressed GCN5 acetyltransferase; inhibition, % at 15.6 µM; 0.17% of 350,000 active; AID 651687, 2012;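 active means every replicate shows inhibition of at least 40%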;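 further: 0% = neutral control wells and 100% = positive control wells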
# hiPSC survival – enhancers of single-cell hiPSC survival, primary screen, ATPlite luminescence | survival enhancement, % at 20 µM | 0.044% of 360,000 active | 100% = ROCK inhibitor wells, 0% = DMSO; in the data active means survival enhancement above about 18%;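 further: cells exposed to compounds for 16 hours before the ATP read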
# Yeast UUG start – modulators of yeast start codon fidelity, primary screen, whole organism, S. cerevisiae, single point, plate reader; S. cerevisiae UUG-firefly luciferase reporter, luminescence/redox ratio; activity score, % at 18.7 µM; 0.13% of 350,000 active; AID 602363, 2012;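 active = replicate mean at a twofold rise or more, about +100% in these data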;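 also: firefly luciferase made from a UUG start codon reports start codon fidelity; reporter light over untreated wells divided by growth signal over untreated wells; some hits fall short of that in this replicate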
# * hit, by the source's call; . = not tested or not shown.
[1] CC(=O)O[C@@H]1[C@H]2[C@@H](C[C@@H](C)[C@@H]3C=CC(=O)[C@@]13C)OC(=O)[C@@H]2C
[2] C[C@H]1CN([C@@H](C)CO)C(=O)c2cc(NC(=O)Cc3cn(C)c4ccccc34)ccc2O[C@@H]1CN(C)S(=O)(=O)c1ccc(F)cc1
[3] CCOc1cc(/C=N\Nc2ccc([N+](=O)[O-])cc2)ccc1OCC(=O)Nc1ccc(C)c(C)c1
[4] C[C@@H]1CN([C@@H](C)CO)C(=O)c2cccc(NC(=O)NC3CCCCC3)c2O[C@@H]1CN(C)C(=O)Nc1ccc(F)cc1
[5] Cc1noc(C)c1NC(=O)N(C)C[C@H]1Oc2c(NC(=O)C3CCOCC3)cccc2C(=O)N([C@@H](C)CO)C[C@H]1C
[6] O/N=C/c1ccccc1Oc1ccccc1
assay / entry,1,2,3,4,5,6
Statin myotox sup,115*,.,103*,-8,-13,86*
FN deposit inh,-1,.,.,.,-1,.
PGC1a acetyl inh,8,-1,-2,3,-5,2
hiPSC survival,-2,.,1,.,.,2
Yeast UUG start,-3,-13,-20,-3,-6,-18

[7] O/N=C\c1ccccc1Oc1ccc(F)cc1
[8] Cc1ccccc1-c1cccc([C@@H]2C[C@H]3[C@H](CON3C)CN2Cc2ccccc2)c1
[9] O=C(C[C@H]1CC[C@H]2[C@@H](COC[C@@H](O)CN2S(=O)(=O)c2ccccc2)O1)Nc1ccccc1
[10] C[C@@H]1CN([C@H](C)CO)C(=O)c2cc(NC(=O)Nc3ccccc3)ccc2O[C@H]1CN(C)C
[11] O=C(NC(Cc1c[nH]c2ccccc12)C(=O)O)c1ccco1 (stereo unspecified)
[12] Cc1cc(C)nc(NC(=NCCc2c[nH]c3ccccc23)NC(=O)c2ccco2)n1
assay / entry,7,8,9,10,11,12
Statin myotox sup,.,8,-13,-19,84*,128*
FN deposit inh,-4,active,4,.,6,.
PGC1a acetyl inh,.,-13,-3,0,-2,-12
hiPSC survival,-1,0,.,.,-1,1
Yeast UUG start,.,-25,.,.,-5,.

[13] CC(=O)N1[C@@H]2c3ccc(-c4ccccc4F)c(=O)n3C[C@@H]2[C@@H](CO)[C@@H]1C(=O)N(C)C
[14] CC1CCN(C(=O)c2cc3nc(-c4ccccc4)cc(-c4ccccc4)n3n2)CC1
[15] CCn1c(SCC(=O)c2ccc(Cl)cc2)nnc1-c1ccoc1C
[16] Cc1occc1-c1nnc(SCC(=O)c2ccc(Cl)cc2)n1CC1CCCO1 (stereo unspecified)
[17] CCCN1[C@@H]2c3ccc(C4=CCCCC4)c(=O)n3C[C@H]1[C@H](CO)[C@H]2C(=O)NCCOC
[18] S=C(NCc1ccco1)N1CCN(C(c2ccccc2)c2ccccc2)CC1
assay / entry,13,14,15,16,17,18
Statin myotox sup,10,83*,-8,137*,-14,86*
FN deposit inh,.,13,5,-3,.,.
PGC1a acetyl inh,.,6,-10,-3,.,-4
hiPSC survival,.,0,0,-2,.,2
Yeast UUG start,.,-15,-28,6,4,-24

[19] COc1cccc(N=Nc2c(=O)[nH]n3c(=O)cc(C)[nH]c23)c1
[20] COc1cccc(N=Nc2c(=O)[nH]n3c(=O)c4c([nH]c23)CCC4)c1
[21] CCOC(=O)c1ccc(NC(=O)c2ccc(NC(=O)c3ccccc3)cc2)cc1
[22] CCOC(=O)c1cncc(NC(=O)c2ccccc2)c1
[23] C[C@@H]1CCCCO[C@@H](CN(C)CC2CC2)[C@@H](C)CN([C@H](C)CO)C(=O)c2cc(NS(=O)(=O)c3cn(C)cn3)ccc2O1
[24] CCN(C(=O)c1nn(-c2ccc(OC)cc2)c(=O)c2c1c1ccccc1n2C)c1ccc(OC)cc1
assay / entry,19,20,21,22,23,24
Statin myotox sup,94*,.,6,95*,.,107*
FN deposit inh,.,.,11,.,.,-14
PGC1a acetyl inh,-1,.,2,-2,6,10
hiPSC survival,2,2,0,1,.,0
Yeast UUG start,.,.,-21,-13,.,15

# Full records, quoted from the list.
# Results for C[C@H]1CN([C@@H](C)CO)C(=O)c2cc(NC(=O)Cc3cn(C)c4ccccc34)ccc2O[C@@H]1CN(C)S(=O)(=O)c1ccc(F)cc1 → Statin myotox sup = .; FN deposit inh = .; PGC1a acetyl inh = -1; hiPSC survival = .; Yeast UUG start = -13
# Results for O/N=C/c1ccccc1Oc1ccccc1 → Statin myotox sup = 86*; FN deposit inh = .; PGC1a acetyl inh = 2; hiPSC survival = 2; Yeast UUG start = -18

# (further entries)
[25] CCCCN(C)CCNC(=O)c1nn(-c2ccc(OC)cc2)c(=O)c2c1c1ccccc1n2C
[26] COc1cc(C)ccc1OCCCOc1cc(C)ccc1Cl
[27] C/C=C/C(=O)OCC(=O)NC(=O)NC(C)C
[28] COc1cc(/C=C/C(=O)OCC(=O)NC(=O)NC(C)C)cc(OC)c1OC
[29] CSc1nc(N2CCOCC2)c2c3c(sc2n1)CCC3
[30] Cc1ccc(NS(=O)(=O)c2ccc(-n3cccn3)cc2)cc1C
assay / entry,25,26,27,28,29,30
Statin myotox sup,0,156*,101*,5,98*,164*
FN deposit inh,-3,.,7,.,.,3
PGC1a acetyl inh,-13,-13,-22,-9,5,-4
hiPSC survival,-4,0,2,0,0,2
Yeast UUG start,-4,-17,-22,-2,-10,-20

[31] Cc1[nH]c2ccccc2c1C(=O)/C=C/c1ccccc1
[32] O=C1C/C(=C/NCc2ccccc2)C(=O)N1
[33] CCNC(=O)Nc1ccc2c(c1)C(=O)N(C)[C@H]1CC[C@H](CC(=O)NCCOC)O[C@@H]1CO2
[34] Cc1ccc(CNC(=O)C23CN(Cc4ccccc4)CC2C(c2ccc([N+](=O)[O-])cc2)=NO3)cc1 (stereo unspecified)
[35] COc1ccc(CNc2nc3c(c(=O)n(Cc4ccc(Br)cc4)c(=O)n3C)n2C)cc1
[36] Cn1c(NCc2ccccc2)nc2c1c(=O)n(Cc1ccc(Br)cc1)c(=O)n2C
assay / entry,31,32,33,34,35,36
Statin myotox sup,-22,95*,-14,92*,98*,23
FN deposit inh,.,.,5,-7,-19,.
PGC1a acetyl inh,71*,-2,10,-7,-8,3
hiPSC survival,-1,-1,.,-1,-1,7
Yeast UUG start,-7,-10,13,-41,0,-6

[37] CCOc1ccccc1-n1nnnc1SCC(=O)NC(=O)NCc1ccco1
[38] O=C(CSc1nnnn1-c1ccccc1)NC(=O)NCc1ccco1
[39] Oc1ccc(-c2cn3c(n2)SCC3)cc1
[40] O=C(Nc1ccc(F)c(Cl)c1)C1CCCN(c2cnccn2)C1 (stereo unspecified)
[41] C[C@@H]1CN([C@H](C)CO)C(=O)c2cc(C3=CCCCC3)cnc2O[C@H]1CN(C)C(=O)c1ccccn1
[42] C[C@@H]1CN([C@H](C)CO)C(=O)c2cc(C3=CCCCC3)cnc2O[C@@H]1CN(C)C(=O)c1ccccn1
assay / entry,37,38,39,40,41,42
Statin myotox sup,-5,95*,97*,110*,-7,106*
FN deposit inh,2,.,.,10,-9,-4
PGC1a acetyl inh,-8,-5,-13,10,3,-5
hiPSC survival,-6,3,7,0,.,.
Yeast UUG start,-18,-16,-23,-25,-6,-10

[43] C[C@@H]1CN([C@H](C)CO)C(=O)c2cc(C3=CCCCC3)cnc2O[C@@H]1CN(C)Cc1ccccc1F
[44] CN(C)C(=O)c1ccc(-c2ccc3c(c2)[C@@H]2[C@@H](CCN2S(=O)(=O)c2ccccc2)[C@H](CO)N3)cc1
[45] COc1cccc(S(=O)(=O)N2C[C@H](O)COC[C@@H]3O[C@@H](CC(=O)N4CCCCC4)CC[C@H]32)c1
[46] Cc1c(NC(=O)C(C)OC(=O)COc2cccc3c2OC(C)(C)C3)c(=O)n(-c2ccccc2)n1C (stereo unspecified)
[47] C[C@@]12C(=O)OC(=O)[C@]1(C)C1CCC2O1
assay / entry,43,44,45,46,47
Statin myotox sup,115*,-10,0,114*,-3
FN deposit inh,3,15,2,.,41*
PGC1a acetyl inh,-4,-11,-2,-3,47*
hiPSC survival,.,.,.,-2,-5
Yeast UUG start,-14,-3,13,1,-5

# High-throughput results as filed in PubChem BioAssay.
